{
  "source": "PubChem BioAssay AID540248",
  "about": "(The Scripps Research Institute Molecular Screening Center, 2011)",
  "note": "The list shows a part of the results, in another mix than the full data. Calls of active or inactive are those of the source.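 The calls were made as follows: active = mean inhibition over three repeats above a set limit taken from the earlier primary screen (cut at about 37% in these data); inactive = the rest.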",
  "data": [
    {"molecular_target": "Serine protease HTRA1 (Homo sapiens) (UniProt Q92743)", "experiment": "HTRA1 protease inhibitors, retest, confirmation, biochemical, fluorescence polarization (AID 540248);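 also: 0% = HTRA1 with DMSO and 100% = wells lacking HTRA1; inhibitors block probe binding so polarization drops and inhibition rises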", "conditions": "recombinant HTRA1, FP-rhodamine activity-based probe, at 5.96 µM, stronger effect = higher value", "values": [
      {"smiles": "CCCCCCCCCCCCCCCC1C[N+](C)(C)CCOP(C)(=O)O1", "note": "(stereo unspecified)", "inhibition": "active: 85.4%"}
    ]}
  ]
}
